Measured values as given in EP4588921A1, “FREE BASE CRYSTAL FORM OF POLYCYCLIC COMPOUND OF NITROGEN-CONTAINING HETEROCYCLE, AND PREPARATION METHOD THEREFOR” (Jiangsu Hansoh Pharmaceutical Group Co., Ltd., priority 2022, dated 2024).

Amino acid sequences for entries named in this document (tags omitted).
UniProt O43613, whole entry: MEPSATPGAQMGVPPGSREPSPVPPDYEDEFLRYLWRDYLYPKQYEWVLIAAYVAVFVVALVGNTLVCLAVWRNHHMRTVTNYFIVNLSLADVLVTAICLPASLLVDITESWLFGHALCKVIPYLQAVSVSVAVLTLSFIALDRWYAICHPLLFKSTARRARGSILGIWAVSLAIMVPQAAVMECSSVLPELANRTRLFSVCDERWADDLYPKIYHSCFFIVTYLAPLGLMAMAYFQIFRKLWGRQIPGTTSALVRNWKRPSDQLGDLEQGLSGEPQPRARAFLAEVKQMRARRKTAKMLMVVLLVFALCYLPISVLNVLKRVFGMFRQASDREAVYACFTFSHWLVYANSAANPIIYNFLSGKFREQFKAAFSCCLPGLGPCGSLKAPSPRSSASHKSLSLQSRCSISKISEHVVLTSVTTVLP
UniProt O43614, whole entry: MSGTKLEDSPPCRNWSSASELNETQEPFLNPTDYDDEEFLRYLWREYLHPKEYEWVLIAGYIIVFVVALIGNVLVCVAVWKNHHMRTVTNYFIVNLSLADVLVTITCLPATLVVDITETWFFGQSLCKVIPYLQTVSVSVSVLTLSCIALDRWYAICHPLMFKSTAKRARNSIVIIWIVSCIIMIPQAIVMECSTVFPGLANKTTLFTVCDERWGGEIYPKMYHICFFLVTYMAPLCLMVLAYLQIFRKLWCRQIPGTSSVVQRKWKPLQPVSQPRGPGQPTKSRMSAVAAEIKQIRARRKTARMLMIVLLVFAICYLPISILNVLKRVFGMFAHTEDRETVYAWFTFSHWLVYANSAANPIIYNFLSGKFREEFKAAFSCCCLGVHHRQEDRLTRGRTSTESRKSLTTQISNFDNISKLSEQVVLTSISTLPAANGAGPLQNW

Legend:
human OX1R = biological target: T1, human OX1R (Homo sapiens, UniProt O43613); experiment: Calcium current (FLIPR) in cells stably expressing OX1 receptor; assay type: cell-based
T1 construct: expressed in transfected cells; host or cells: CHO-K1
Excerpt: (§1) Test example 1. Determination of the effect of the compounds of the present invention on calcium current in cells stably expressing OX1 and OX2 receptors 1. Experimental objective: The inhibitory effect of the compounds on calcium current activity in CHO-K1/human OX1R and CHO-K1/human OX2R cells was detected. 2. Experimental instruments and reagents 2.1 Instruments: • 384-well cell culture plate (Corning; 3764); • Plate reader FLIPR Tetra (Molecular Device). 2.2 Reagents: • DMEM, high glucose (Gibco: 12100); • Fetal bovine serum (Biosera: FB-1058/500); • P/S (Biosera: XC-A4122); • 5X Matrigel (Corning: 354230); • HBSS (Sigma: H1387); • HEPES (Invitrogen: 15630080); • Fluo-8 AM (AAT Bioquest: 21080); • Probenecid (Sigma: P8761); • Pluronic F-127 (Sigma: P2443-250G); • 1000X Fluo-8 AM (2 mM): Fluo-8 AM was dissolved in DMSO, the mixture was shaken for 1-2 min, sub-packaged and stored at -20°C; • Complete culture medium: DMEM + 10% FBS + 1X P/S; • Cell seeding medium: DMEM + 10% FBS + 1X PS; • Experimental buffer: 1X HBSS + 20 mM HEPES +1 mM Probenecid + 0.025% Pluronic F-127; • 1X Matrigel: 5X Matrigel was diluted with DMEM; • Cell strain: CHO-K1/human OX1R and CHO-K1/human OX2R cell lines. 3. […] The IC50 of the positive compounds and test compounds was determined. […] Experimental data processing method: FLIPR Tetra was used to read and collect the fluorescence signal value (RFU). […]

human OX2R = biological target: T2, human OX2R (Homo sapiens, UniProt O43614); experiment: Calcium current (FLIPR) in cells stably expressing OX2 receptor; assay type: cell-based
T2 construct: expressed in transfected cells; host or cells: CHO-K1
Excerpt: as §1

Cc1cc(C)nc(N2CC3CN(C(=O)c4c(F)cccc4-n4nccn4)CC3C2)n1 (centres unmarked) [Seltorexant, reference compound]
IC50 (human OX1R): 725 nM | IC50 (human OX2R): 26.8 nM
